# Test results published in EP0973746B1, “SUBSTITUTED 3-CYANO QUINOLINES” (Wyeth Holdings Corporation, priority 1997, dated 1998).
# Amino acid sequences for entries named in this document (tags omitted). Residues count along the entry.
# UniProt P29317, 24-976, species assumed: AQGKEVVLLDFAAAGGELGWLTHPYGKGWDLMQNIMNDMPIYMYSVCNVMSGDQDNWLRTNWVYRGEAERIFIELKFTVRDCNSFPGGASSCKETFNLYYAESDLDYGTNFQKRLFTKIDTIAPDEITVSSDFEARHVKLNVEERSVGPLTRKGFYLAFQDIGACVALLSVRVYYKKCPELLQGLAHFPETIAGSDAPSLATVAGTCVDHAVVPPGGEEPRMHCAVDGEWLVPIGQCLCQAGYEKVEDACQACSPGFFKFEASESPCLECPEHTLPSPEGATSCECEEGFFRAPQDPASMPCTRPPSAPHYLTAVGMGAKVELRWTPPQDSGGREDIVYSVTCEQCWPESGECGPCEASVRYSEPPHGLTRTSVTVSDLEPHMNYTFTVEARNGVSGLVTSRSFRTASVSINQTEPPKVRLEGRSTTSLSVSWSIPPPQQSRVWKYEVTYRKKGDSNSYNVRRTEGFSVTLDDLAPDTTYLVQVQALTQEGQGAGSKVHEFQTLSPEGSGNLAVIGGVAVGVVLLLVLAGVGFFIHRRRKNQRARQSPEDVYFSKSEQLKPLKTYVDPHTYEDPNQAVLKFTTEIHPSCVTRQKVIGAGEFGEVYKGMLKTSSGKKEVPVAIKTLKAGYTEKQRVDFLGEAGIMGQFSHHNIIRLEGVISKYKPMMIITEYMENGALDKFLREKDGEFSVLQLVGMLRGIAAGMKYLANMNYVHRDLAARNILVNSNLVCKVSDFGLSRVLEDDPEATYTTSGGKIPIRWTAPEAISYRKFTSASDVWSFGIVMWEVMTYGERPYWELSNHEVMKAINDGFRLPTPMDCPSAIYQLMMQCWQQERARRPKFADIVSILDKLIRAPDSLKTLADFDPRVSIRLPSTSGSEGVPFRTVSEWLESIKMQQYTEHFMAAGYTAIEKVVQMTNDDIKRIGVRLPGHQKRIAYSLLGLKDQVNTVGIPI
# Tests used:
# [1] = system: LOX; assay: Inhibition of cancer cell growth as measured by cell number, LOX; format: cell-based; settings: Homo sapiens, 48 h, read-out: IC50 LOX;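 further: LOX cells served as a line with low or absent EGFR and HER2/neu expression, in contrast to receptor-overexpressing lines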
# [2] = system: SW620; assay: Inhibition of cancer cell growth as measured by cell number, SW620; format: cell-based, human; settings: for IC50: Homo sapiens, SW-620, 48 h, read-out: IC50 SW620, cell number, Sulforhodamine B, 48 hours exposure;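 on all read-outs here: SW620 was included as a cell line with little or no EGFR or HER2/neu expression, in contrast to receptor-overexpressing lines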
# [3] = system: SKBR3; assay: Inhibition of cancer cell growth as measured by cell number, SKBR3; format: cell-based, human; settings: for IC50: Homo sapiens, SK-BR-3, 48 h, read-out: IC50 SKBR3, cell number, Sulforhodamine B, 48 hours exposure; for IC50 SKBR3: cell number, Sulforhodamine B, 48 hours exposure;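 on all read-outs here: SK-BR-3 cells were selected as a line overexpressing HER2/neu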
# [4] = system: MCF7; assay: Inhibition of cancer cell growth as measured by cell number, MCF7; format: cell-based; settings: Homo sapiens, MCF7, 48 h, read-out: IC50 MCF7;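 further: MCF7 was included as a line with little or no EGFR or HER2/neu expression, in contrast to the receptor-overexpressing lines of the panel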
# [5] = biological target: Epithelial Cell Kinase (ECK) (Homo sapiens, UniProt P29317); assay: biochemical
# [6] = system: human epidermoid tumors (A431); assay: In vivo inhibition of the growth of human epidermoid tumors (A431)
# Procedure: Representative compounds of this invention (listed below) were evaluated in an in vivo standard pharmacological test procedure which measured its ability to inhibit the growth of human epidermoid tumors. […] BALB/c nu/nu female mice (Charles River, Wilmington, MA) were used in this in vivo standard pharmacological test procedure. A unit of 5 X 10^6 cells were injected SC into mice. When tumors attained a mass of between 100 and 150 mg, the mice were randomized into treatment groups (day zero). […] Control animals received no drug. Tumor mass was determined every 7 days [(length X width^2)/2] for 28 days post staging. Relative tumor growth (Mean tumor mass on days 7, 14, 21, and 28 divided by the mean tumor mass on day zero) is determined for each treatment group.
# [7] = Eck IC50, pH 7.2, nonradioactive format
# [8] = 10 mg/kg/dose IP on days 1 through 10
# [9] = 50 mg/kg/dose IP on days 1 through 10
# [10] = 100 mg/kg/dose IP on days 1 through 10
# [11] = Table 11, 80 mg/kg/dose IP on days 1,5 and 9
# [12] = Table 11, 80 mg/kg/dose PO on days 1 through 10
structure (smiles),measurement,setting,value
"COc1ccc2c(Nc3cccc(Br)c3)c(C#N)cnc2c1 [Example 3, 4-[(3-Bromophenyl)amino]-7-methoxy-3-guinolinecarbonitrile]",IC50,[1],1.42 µg/mL
same,IC50,[2]; Table 4,9.55 µg/mL
same,IC50,[3]; Table 7,6.9 µg/mL
same,IC50,[4],6.17 µg/mL
"N#Cc1cnc2ccc(NC(=O)CCl)cc2c1Nc1cccc(Br)c1 [Example 19, N-[4-[(3-Bromophenyl)amino]-3-cyano-6-quinolinyl]-2-chloroacetamide]",IC50,[2]; Table 4,0.00648 µg/mL
same,IC50,[3]; Table 7,0.0265 µg/mL
same,IC50,[4],0.0553 µg/mL
"N#Cc1cnc2ccc([N+](=O)[O-])cc2c1Nc1cccc(C(F)(F)F)c1 [Example 23, 6-Nitro-4[(3-trifluoromethylphenyl)amino]-3-quinolinecarbonitrile]",IC50,[1],7.92 µg/mL
same,IC50,[3]; Table 7,48 µg/mL
same,IC50,[4],47.9 µg/mL
"N#Cc1cnc2cc(O)c(O)cc2c1Nc1cccc(Br)c1 [Example 39, 4-[(3-Bromophenyl)amino]-6,7-dihydroxy-3-quinolinecarbonitrile]",IC50,[1],0.278 µg/mL
same,IC50,[2]; Table 4,4.43 µg/mL
same,IC50,[3]; Table 7,3.65 µg/mL
"CCOc1cc2ncc(C#N)c(Nc3cccc(Br)c3)c2cc1OCC [Example 47, 4-[(3-Bromophenyl)amino]6,7-diethoxy-3-quinolinecarbonitrile]",IC50,[5]; [7],> 24.3 µM
same,Relative Tumor Growth Day 7,[6]; [8],3.22
same,Relative Tumor Growth Day 14,[6]; [8],6.75
same,Relative Tumor Growth Day 21,[6]; [8],13.38
same,Relative Tumor Growth Day 28,[6]; [8],18.59
same,Relative Tumor Growth Day 7,[6]; [9],2.05
same,Relative Tumor Growth Day 14,[6]; [9],5.04
same,Relative Tumor Growth Day 21,[6]; [9],10.02
same,Relative Tumor Growth Day 28,[6]; [9],14.01
same,Relative Tumor Growth Day 7,[6]; [10],1.57
same,Relative Tumor Growth Day 14,[6]; [10],3.36
same,Relative Tumor Growth Day 21,[6]; [10],5.90
same,Relative Tumor Growth Day 28,[6]; [10],5.85
"COc1cc2c(Nc3ccc(Cl)cc3F)c(C#N)cnc2cc1OCCCCl [Example 76, 4-(4-Chloro-2-fluoro-phenylamino)-7-(3-chloro-propoxy)-6-methoxy-quinoline-3-carbonitrile]",IC50,[2]; Table 8,2.31 µg/mL
same,IC50,[3]; Table 8,1.89 µg/mL
"COc1cc2c(Nc3ccc(Cl)cc3F)c(C#N)cnc2cc1OCCCN1CCOCC1 [Example 81, 4-(4-Chloro-2-fluoro-phenylamino)-6-methoxy-7-(3-morpholin-4-yl-propoxy)-quinoline-3-carbonitrile]",IC50,[2]; Table 8,2.08 µg/mL
same,IC50,[3]; Table 8,1.44 µg/mL
"N#Cc1cnc2ccc(NC(=O)C=CCN3CCOCC3)cc2c1Nc1ccc(F)c(Br)c1 [Example 174, N-{4-[(3-Bromo-4-fluorophenyl)amino]-3-cyano-6-quinolinyl] -4-morpholino-2-butenamide]",IC50,[3]; Table 8,0.298 µg/mL
"CCN(CC)CC#CC(=O)Nc1ccc2ncc(C#N)c(Nc3cccc(Br)c3)c2c1 [Example 187, N-[4-[(3-Bromophenyl)amino]-3-cyano-6-quinolinyl]-4-diethylamino-2-butynamide]",IC50,[4],0.42 µg/mL
"CN1CCN(CC#CC(=O)Nc2ccc3ncc(C#N)c(Nc4cccc(Br)c4)c3c2)CC1 [Example 190, N-[4-[(3-Bromophenyl)amino]-3-cyano-6-quinolinyl]-4-(N-methylpiperazino)-2-butynamide]",IC50,[2]; Table 8,4.88 µg/mL
"CC(C)N(C)CC#CC(=O)Nc1ccc2ncc(C#N)c(Nc3cccc(Br)c3)c2c1 [Example 191, N-[4-[(3-Bromophenyl)amino]-3-cyano-6-quinolinyl]-4-(N-isopropyl-N-methylamino)-2-butynamide]",IC50,[2]; Table 8,0.084 µg/mL
"CN(C)CC#CC(=O)Nc1ccc2ncc(C#N)c(Nc3ccc(F)c(Br)c3)c2c1 [Example 197, N-[4-[(3-Bromo-4-fluorophenyl)amino]-3-cyano-6-quinolinyl]-4-dimethylamino-2-butynamide]",IC50,[2]; Table 8,0.266 µg/mL
same,IC50,[5]; Eck IC50,42.9 µM
same,IC50,[3]; Table 8,0.197 µg/mL
"COc1cc2ncc(C#N)c(Nc3cccc(Br)c3)c2cc1NC(=O)C=CCN1CCOCC1 [Example 200, 4-Morpholin-4-yl-but-2-enoic acid [4-(3-bromo-phenylamino)-3-cyano-7-methoxy-quinolin-6-yl]-amide]",IC50,[3]; Table 8,0.247 µg/mL
"COc1cc2ncc(C#N)c(Nc3ccc(F)c(Cl)c3)c2cc1NC(=O)C=CCN(C)C [Example 203, 4-Dimethylamino-but-2-enoic acid [4-(3-chloro-4-fluorophenylamino)-3-cyano-7-methoxy-quinolin-6-yl]-amide]",IC50,[2]; Table 8,1.73 µg/mL
"CCN(CC)CC=CC(=O)Nc1cc2c(Nc3ccc(F)c(Cl)c3)c(C#N)cnc2cc1OC [Example 204, 4-Diethylamino-but-2-enoic acid [4-(3-chloro-4-fluorophenylamino)-3-cyano-7-methoxy-quinolin-6-yl]-amide]",IC50,[2]; Table 8,0.34 µg/mL
same,IC50 SW620,"[2]; cell number, Sulforhodamine B, 48 hours exposure, Table 8",0.347 µg/mL
same,IC50,[3]; Table 8,0.026 µg/mL
same,IC50 SKBR3,[3]; Table 8,0.029 µg/mL
"COc1cc2ncc(C#N)c(Nc3ccc(F)c(Cl)c3)c2cc1NC(=O)C=CCN1CCOCC1 [Example 205, 4-Morpholin-4-yl-but-2-enoic acid [4-(3-chloro-4-fluorophenylamino)-3-cyano-7-methoxy-quinolin-6-yl]-amide]",IC50,[3]; Table 8,0.243 µg/mL
"COc1cc2ncc(C#N)c(Nc3ccc(F)c(Br)c3)c2cc1NC(=O)C=CCN(C)C [Example 208, 4-Dimethylamino-but-2-enoic acid [4-(3-bromo-4-fluorophenylamino)-3-cyano-7-methoxy-quinolin-6-yl]-amide]",IC50,[5]; [7],> 40.1 µM
same,Relative Tumor Growth Day 7,[6]; [11],0.82
same,Relative Tumor Growth Day 14,[6]; [11],2.29
same,Relative Tumor Growth Day 21,[6]; [11],4.80
same,Relative Tumor Growth Day 28,[6]; [11],8.09
same,Relative Tumor Growth Day 7,[6]; [12],0.40
same,Relative Tumor Growth Day 14,[6]; [12],0.99
same,Relative Tumor Growth Day 21,[6]; [12],1.46
same,Relative Tumor Growth Day 28,[6]; [12],2.63
same,tumor growth relative to animals that did not receive any drug,[6]; summary in words of Tables 10 and 11,significantly inhibited tumor growth
"CCOc1cc2ncc(C#N)c(Nc3cccc(Br)c3)c2cc1NC(=O)C=CCN(CC)CC [Example 217, 4-Diethylamino-but-2-enoic acid [4-(3-bromo-phenylamino)-3-cyano-7-ethoxy-quinolin-6-yl]-amide]",IC50,[3]; Table 8,0.019 µg/mL
same,IC50 SKBR3,[3]; Table 8,0.033 µg/mL
"COc1cccc2c(Nc3c(F)cc(F)cc3F)c(C#N)cnc12 [Example 280, 8-Methoxy-4-(2,4,6-trifluoro-phenylamino)-quinoline-3-carbonitrile]",IC50,[5]; [7],> 30.4 µM
"COc1cc2ncc(C#N)c(Nc3cc(C)c(O)c(C)c3)c2cc1OC [Example 288, 4-(4-Hydroxy-3,5-dimethyl-phenylamino)-6,7-dimethoxy-quinoline-3-carbinitile]",IC50,"[5]; read-out: Eck IC50, pH 7.2, nonradioactive format",0.0014 µM
"COc1cc2ncc(C#N)c(Nc3cc(Cl)ccc3O)c2cc1OC [Example 290, 4-(5-Chloro-2-hydroxy-phenylamino)-6,7-dimethoxy-quinoline-3-carbonitrile]",IC50,[5]; [7],> 28.1 µM
"COc1cc2ncc(C#N)c(Nc3cc(Br)c(O)c(Br)c3)c2cc1OC [Example 291, 4-(3,5-Dibromo-4-hydroxy-phenylamino)-6,7-dimethoxy-quinoline-3-carbonitrile]",IC50,[5]; [7],> 20.9 µM
"COc1cc2ncc(C#N)c(Nc3cc(C)ccc3O)c2cc1OC [Example 295, 4-(2-Hydroxy-5-methyl-phenylamino)-6,7-dimethoxy-quinoline-3-carbonitrile]",IC50,[5]; [7],> 29.8 µM
"CCCOc1cc2ncc(C#N)c(Nc3cccc(Br)c3)c2cc1OCCC [Example 303, 4-(3-Bromophenylamino)-6.7-di-n-propoxy-3-quinolinecarbonitrile]",IC50,[5]; [7],> 22.7 µM
"CCCCOc1cc2ncc(C#N)c(Nc3cccc(Br)c3)c2cc1OCCCC [Example 305, 4-(3-Bromophenylamino)-6,7-di-n-butoxy-3-quinolinecarbonitrile]",IC50,[5]; [7],> 42.8 µM
"COc1ccc2c(Nc3ccc(Cl)cc3F)c(C#N)cnc2c1 [Example 307, 4-(4-Chloro-2-fluorophenylamino)-7-methoxy-3-quinolinecarbonitrile]",IC50,[5]; [7],> 61 µM
"N#Cc1cnc2cc(O)ccc2c1Nc1ccc(Cl)cc1F [Example 308, 4-(4-Chloro-2-fluorophenylamino)-7-hydroxy-3-quinolinecarbonitrile]",IC50,[5]; [7],> 63.8 µM
"COCCOc1cc2ncc(C#N)c(Nc3cccc(Br)c3)c2cc1OCCOC [Example 311, 4-[(3-Bromophenyl)amino]-6,7-bis(2-methoxyethoxy)-3-quinolinecarbonitrile]",IC50,[5]; [7],> 21.2 µM

# Where two headings read alike, the source gives them in different places.
